ChEMBL document CHEMBL1955801, “Synthesis, biological evaluation and molecular investigation of fluorinated peroxisome proliferator-activated receptors α/γ dual agonists” (Bioorg Med Chem, 2012)
Activity calls are given as the source filed them. The rule behind the calls is not given here.

Molecular target: T1, Peroxisome proliferator-activated receptor alpha (Homo sapiens) (UniProt Q07869)
T1 sequence (whole entry): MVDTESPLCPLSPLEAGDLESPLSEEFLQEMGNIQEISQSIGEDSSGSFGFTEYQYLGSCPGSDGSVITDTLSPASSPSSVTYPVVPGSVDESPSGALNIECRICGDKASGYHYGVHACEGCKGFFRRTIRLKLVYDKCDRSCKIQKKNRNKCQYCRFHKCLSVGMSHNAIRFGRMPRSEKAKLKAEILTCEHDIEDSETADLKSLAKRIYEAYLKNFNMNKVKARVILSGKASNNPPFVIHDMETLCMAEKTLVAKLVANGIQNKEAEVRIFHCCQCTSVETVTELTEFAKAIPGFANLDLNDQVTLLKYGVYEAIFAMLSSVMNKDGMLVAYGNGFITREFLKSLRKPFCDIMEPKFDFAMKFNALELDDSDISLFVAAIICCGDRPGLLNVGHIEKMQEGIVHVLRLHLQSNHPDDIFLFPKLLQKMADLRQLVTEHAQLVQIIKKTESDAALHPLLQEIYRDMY
Details: HepG2, 5 to 10 uM

Row | Emax | Structure (SMILES)
1 | inactive | O=C(O)C(Cc1cccc(F)c1)Oc1ccccc1C(F)(F)F (racemic)
2 | inactive | O=C(O)C(Cc1ccccc1)Oc1ccccc1C(F)(F)F (racemic)
